Results from patent EP2042507A1, “Insecticidal derivatives of phosphorylated aminoheterocycles” (dated 2009).

Test: logP (acidic), lgP (HCOOH)

CCCSP(=S)(OCC)N1CCO/C1=N\[C@H]1CCc2ccccc21 (some centres unmarked)
lgP (HCOOH) (HCOOH (acidic)): 2.09 | Phys. data = logP (acidic) (acidic): 2.09
